Measured values published in US9126985B2, “Tetra- and pentasubstituted benzimidazolium compounds” (Boehringer Ingelheim International GmbH, priority 2013, dated 2015).

Sequences of proteins named here, by UniProt entry; tags and fusion partners are left off.
UniProt Q61180, whole entry: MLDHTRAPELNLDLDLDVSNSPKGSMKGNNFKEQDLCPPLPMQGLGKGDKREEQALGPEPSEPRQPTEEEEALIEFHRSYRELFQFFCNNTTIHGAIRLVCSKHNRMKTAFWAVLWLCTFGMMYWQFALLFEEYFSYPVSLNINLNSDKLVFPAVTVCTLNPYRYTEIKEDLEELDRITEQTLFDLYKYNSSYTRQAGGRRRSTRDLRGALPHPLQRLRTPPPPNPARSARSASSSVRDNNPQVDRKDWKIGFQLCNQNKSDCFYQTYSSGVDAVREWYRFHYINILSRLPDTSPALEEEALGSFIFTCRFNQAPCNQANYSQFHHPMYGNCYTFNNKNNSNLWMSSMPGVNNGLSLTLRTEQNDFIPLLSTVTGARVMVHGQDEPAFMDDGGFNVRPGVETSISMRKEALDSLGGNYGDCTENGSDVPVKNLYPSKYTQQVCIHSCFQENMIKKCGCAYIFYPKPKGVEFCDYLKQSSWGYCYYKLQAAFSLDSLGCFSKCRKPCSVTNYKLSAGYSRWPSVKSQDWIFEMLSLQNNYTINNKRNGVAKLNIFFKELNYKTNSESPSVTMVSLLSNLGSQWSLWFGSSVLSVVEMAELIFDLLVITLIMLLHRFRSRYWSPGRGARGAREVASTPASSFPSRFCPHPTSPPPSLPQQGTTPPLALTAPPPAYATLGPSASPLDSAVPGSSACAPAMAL
UniProt Q9WU38, whole entry: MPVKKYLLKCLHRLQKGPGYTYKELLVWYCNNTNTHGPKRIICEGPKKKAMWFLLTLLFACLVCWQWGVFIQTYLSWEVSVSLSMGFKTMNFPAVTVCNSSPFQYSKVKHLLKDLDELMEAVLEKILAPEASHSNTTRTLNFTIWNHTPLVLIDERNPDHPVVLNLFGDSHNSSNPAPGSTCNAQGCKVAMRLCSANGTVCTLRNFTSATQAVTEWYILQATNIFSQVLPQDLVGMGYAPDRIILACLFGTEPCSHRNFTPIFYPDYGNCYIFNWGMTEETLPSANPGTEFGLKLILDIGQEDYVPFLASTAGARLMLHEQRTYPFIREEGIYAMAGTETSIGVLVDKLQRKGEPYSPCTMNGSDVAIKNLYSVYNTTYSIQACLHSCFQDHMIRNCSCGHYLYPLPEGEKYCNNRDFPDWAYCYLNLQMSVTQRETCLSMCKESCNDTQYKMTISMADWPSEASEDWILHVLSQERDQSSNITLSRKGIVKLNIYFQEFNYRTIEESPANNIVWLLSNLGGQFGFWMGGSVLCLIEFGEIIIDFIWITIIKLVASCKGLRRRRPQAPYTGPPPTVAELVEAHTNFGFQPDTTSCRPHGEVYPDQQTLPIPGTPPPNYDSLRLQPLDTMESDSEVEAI
UniProt Q9WU39, whole entry: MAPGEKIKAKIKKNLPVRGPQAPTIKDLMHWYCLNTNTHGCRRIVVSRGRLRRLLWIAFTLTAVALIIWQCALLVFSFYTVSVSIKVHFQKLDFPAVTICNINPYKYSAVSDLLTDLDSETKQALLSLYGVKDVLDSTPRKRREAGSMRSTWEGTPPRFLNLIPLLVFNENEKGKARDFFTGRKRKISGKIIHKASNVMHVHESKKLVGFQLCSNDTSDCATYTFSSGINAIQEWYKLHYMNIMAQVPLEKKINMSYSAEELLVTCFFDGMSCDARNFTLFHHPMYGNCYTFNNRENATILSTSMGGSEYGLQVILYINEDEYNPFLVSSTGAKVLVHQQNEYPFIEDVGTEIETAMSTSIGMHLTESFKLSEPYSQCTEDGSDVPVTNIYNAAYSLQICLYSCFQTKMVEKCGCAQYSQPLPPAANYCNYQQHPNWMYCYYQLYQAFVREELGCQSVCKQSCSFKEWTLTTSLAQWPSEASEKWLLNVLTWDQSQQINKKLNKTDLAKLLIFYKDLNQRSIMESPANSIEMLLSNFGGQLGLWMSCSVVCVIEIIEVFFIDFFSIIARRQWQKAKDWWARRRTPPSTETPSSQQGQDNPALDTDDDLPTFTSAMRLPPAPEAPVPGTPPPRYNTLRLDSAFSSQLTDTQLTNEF

Key:
[1] = target: ENaC (Epithelial Sodium Channel) (Mus musculus, UniProt Q61180+Q9WU38+Q9WU39); experiment: Ussing Chamber assay: inhibition of amiloride sensitive short circuit current in M-1 cells; conditions: Mouse kidney M-1 cells on transwell filters, compound added to apical solution, 37° C., tested form: trifluoroacetate
Protocol: Mouse kidney M-1 cells were cultivated in DMEM containing 5% FCS and 5 μM dexamethasone for 10 to 12 days on polyester transwell filters. Filters were inserted into a teflon-coated well-plate which fit into the ussing chamber system. Prior to measurement the medium of M-1 cells was replaced with Caco-2 transport buffer (Invitrogen, Germany). During measurements, the Ussing chamber temperature was kept at 37° C. Short circuit currents (I_sc) were measured in the voltage-clamp mode with the software package Lab View for data acquisition and analysis. The transepithelial electrical resistance (TEER) was determined by the application of voltage steps of ±5 mV every 5 sec. Compounds were administered at a final concentration of 3 μM or at increasing concentrations (1-3-10 μM) to the apical solution. At the end of each experiment the amiloride sensitive I_SC was measured by adding 3 μM amiloride to the apical compartment. Results are expressed as inhibition in percent of the amiloride effect or as IC50.
With the example compounds given above, the following IC50 values were determined in the Ussing Chamber assay: […]

[2] = test system: CALU-3 cells; experiment: Permeability in CALU-3 cells; conditions: CALU-3 cell monolayers, pH 7.4, 37° C., 10 μM compound, tested form: trifluoroacetate
Protocol: Permeability in CALU-3 Cells:
Permeability measurements across polarized, confluent CALU-3 cell monolayers grown on permeable filter supports are used to provide information on the potential of a compound to pass the lung epithelium. Apparent permeability coefficients (Papp) of the compounds across the CALU-3 cell monolayers are measured (pH 7.4, 37° C.) in apical-to-basal (AB) and basal-to-apical (BA) transport direction.
CALU-3 cells (1-2×10^5 cells/1 cm^2 area) are seeded on filter inserts (Costar transwell polycarbonate filters, 0.4 μm pore size) and cultured (for 10-12 days DMEM) until tight monolayers are formed. Compounds of interest are dissolved in appropriate solvent (DMSO, 10 mM stock solution). […] The compound concentration in the samples is measured by HPLC-MS/MS or scintillation counting. The permeability coefficient (Papp) and efflux ratio are calculated according to: Papp [cm/s]=(concentration receiver [nM]*volume receiver [mL]/time interval [sec])*(1/filter area)*(1/donor concentration [nM])
With example compounds given above, the following permeability values were determined in the CALU-3 cells assay: […]

SMILES	IC50 [1] [nM]	Papp, AB ([2]; apical-to-basal)	Papp, BA ([2]; basal-to-apical)
C=CC[n+]1c(CNC(=O)c2nc(Cl)c(N)nc2N)n(CC)c2cc(OCCCP(=O)(OCC)OCC)ccc21	1		
CCn1c(CNC(=O)c2nc(Cl)c(N)nc2N)[n+](CCCCn2cc(C(=O)N(C)C)ccc2=O)c2ccc(OCCO)cc21	13	0.6 10^−6 cm/s	0.05 10^−6 cm/s
CCn1c(CNC(=O)c2nc(Cl)c(N)nc2N)[n+](CCCC#N)c2ccc(O)cc21	11		
